Measured values reported in patent publication US4499286A, “Derivatives of thienylacetic acid amides and their pharmaceutically acceptable acid salts and a process for the preparation thereof” (dated 1985).

Tested on: μ
Assay: pharmacological study (μ-specific analgetics)

CN(C(=O)Cc1cc(Cl)c(Cl)s1)[C@@H]1CCCC[C@H]1N1CCCC1.Cl (relative stereo)
receptor specificity of analgesia: μ-specific analgetics

CN(C(=O)Cc1cc(Cl)sc1Cl)[C@@H]1CCCC[C@H]1N1CCCC1.Cl (relative stereo)
receptor specificity of analgesia: μ-specific analgetics
